Test results published in PMC10610505, “Synthesis and Biological Evaluation of Some New 3-Aryl-2-thioxo-2,3-dihydroquinazolin-4(1H)-ones and 3-Aryl-2-(benzylthio)quinazolin-4(3H)-ones as Antioxidants; COX-2, LDHA, α-Glucosidase and α-Amylase Inhibitors; and Anti-Colon Carcinoma and Apoptosis-Inducing Agents” (Pharmaceuticals, 2023).

Target: purified recombinant human LDHA protein (Homo sapiens, UniProt P00338)
Test: Lactate dehydrogenase A (LDHA) inhibitory assay
Assay type: biochemical

inhibition at 111 µg/mL (at 0.111 mg/mL (1 mM), read-out: LDHA mean % inhibition ± SD): 100%
IC50 (mean ± SD of three replicates): 141 µM
Compound: NC(=O)C(=O)O [Sodium oxamate, reference compound]
